Results published in patent US20100311683A1, “CYTIDINE ANALOGS FOR TREATMENT OF MYELODYSPLASTIC SYNDROMES” (priority 2007, published 2010).

Assays:
[1] = tested on: patients with higher risk MDS; details: in vivo
[2] = tested on: higher risk MDS patients ≥75 yrs of age
[3] = tested on: patients with AML or high-risk MDS after HSCT
[4] = tested on: patients with higher risk MDS; assay: AZA-001 analysis: number of AZA cycles to first and best response

Nc1ncn([C@@H]2O[C@H](CO)[C@@H](O)[C@H]2O)c(=O)n1 [azacitidine, 4-amino-1-β-D-ribofuranosyl-1,3,5-triazin-2(1H)-one]
reduction in infections requiring intravenous antimicrobials vs CCR [1]: 34% | Anemia [2]: 42% | Discontinuations due to an AE [2]: 13% | HR OS, AZA vs CCR [2]: 0.48 | Infections [2]: 79% | OS rate at 2 years [2]: 55% | thrombocytopenia [2]: 71% | tolerability [2]: generally well tolerated | RBC transfusion-dependent patients at baseline who achieved TI ([2]; 10/23): 44% | KM median OS ([2]; AZA n=38, at 17.7 months of follow-up): not reached | safety ([3]; 32 mg/m2, at least 4 cycles): safe | AZA-associated (or possibly associated) toxicity: grade I/II thrombocytopenia ([3]; AZA 8-32 mg/m2 daily x5, 42 patients): 5 n | toxicity: grade II creatinine elevation ([3]; context of multiple nephrotoxic drugs): 1 n | toxicity: grade III elevation of transaminases ([3]; drug given with posaconazole and pentamidine): 1 n | toxicity: grade III thrombocytopenia ([3]; in association with MMF and sirolimus): 2 n | effect on acute or chronic GVHD incidence ([3]; in vivo): no indication of an effect | toxicity: grade I nausea ([3]; in vivo): 5 n | toxicity: grade II fatigue ([3]; in vivo): 2 n | toxicity: pruritus ([3]; in vivo): 1 n | toxicity: pulmonary hemorrhage ([3]; in vivo): 1 n | toxicity: oral ulcers ([3]; in vivo, po): 1 n | patients who achieved a CR, PR, or HI ([4]; 91 of 179 AZA-treated patients): 51% | median number of cycles to first response ([4]; 91 responders): 3 cycles | responders who had achieved a first response at 6 cycles ([4]; 91 responders): 81% | responders who had achieved a first response at 9 cycles ([4]; 91 responders): 90% | median additional treatment cycles after first response to improved response ([4]; in vivo): approximately 4 cycles | responders who improved their response status over the next 1-11 treatment cycles ([4]; n=38): 42%
